The numbers were not newly measured in publication PMC4740375, which cites them from elsewhere.

Chains of the proteins cited; added tags and fusions are not shown. Residues count along the entry.
UniProt P16410, 36-161: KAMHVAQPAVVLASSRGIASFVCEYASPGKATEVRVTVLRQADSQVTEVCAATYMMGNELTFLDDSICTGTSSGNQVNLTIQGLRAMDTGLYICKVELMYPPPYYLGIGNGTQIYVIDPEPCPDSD
UniProt P42081, 24-247: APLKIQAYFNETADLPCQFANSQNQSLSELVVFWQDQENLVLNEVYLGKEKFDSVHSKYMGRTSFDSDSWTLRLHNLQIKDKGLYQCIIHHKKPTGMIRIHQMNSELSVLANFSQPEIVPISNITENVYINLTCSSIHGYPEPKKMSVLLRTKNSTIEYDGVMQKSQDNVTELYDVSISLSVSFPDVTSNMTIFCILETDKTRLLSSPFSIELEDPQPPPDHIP

Broadly, the Kd is the free concentration of one partner at which half of the binding sites on the other are occupied at equilibrium, for simple one-to-one binding.

The target in the series is CTLA-4 (Homo sapiens) (UniProt P16410).

Turning to CD86 (from UniProt P42081), the Kd was 2000 nM.
